Patent US12161698B2, “Synthetic platelets” (CASE WESTERN RESERVE UNIVERSITY, priority 2011, dated 2024)

Tested on: systemic hemostasis in mice (tail bleeding)
Test: Tail bleeding time after free SK versus PMIN-encapsulated SK
Conditions: 400 IU/mouse, 30 min post-administration, vs normal mice

## streptokinase [free SK]
  tail bleeding time: significant prolongation of tail bleeding time
